# Results published in ChEMBL document CHEMBL6120995, “Orvinol-based opioid receptor antagonist fluorinated at C(20)-pharmacophore” (2025).
# Assay: Toxicity in male Swiss mouse assessed as effect on locomotor activity at 0.1 to 10 mg/kg, sc measured after 30 mins by tail-flick test
# Settings: in vivo, 0.5 h
smiles,measurement,value
C=CCN1CC[C@]23c4c5ccc(O)c4O[C@H]2[C@@]2(O)CC[C@@]3(C[C@@H]2[C@](C)(O)C(F)(F)F)[C@H]1C5,Activity,Non-toxic
